Patent US5055459A, “Selective elimination of malignant cells from bone marrow by bis (acyloxy) propylphosphoramidates” (Board of Regents, The University of Texas, priority 1989, dated 1991)

Tests used:
[1] = system: extracts from L1210 cell-lines; details: cited from earlier work
[2] = system: L1210 lymphatic leukemia cells; assay: In vitro cytotoxicity to L1210 lymphatic leukemia cells, 72 hr, MTT (Table 2); type: cell-based, murine; details: concentration that kills 50% of the cells; 72 hr at 37° C.; concentration range 0.5-20 microgram/ml

SMILES	conversion to carboxyphosphamide ([1]; extracts from drug resistant L1210 cell-line)	conversion to carboxyphosphamide ([1]; extracts from drug-sensitive cell line)	ED50 [2] [microgram/ml]
O=P1(N(CCCl)CCCl)NC(O)CCO1 (stereo not shown)	extensively converted to carboxyphosphamide	negligible levels of carboxyphosphamide	–
COP(=O)(OCCC(OC(C)=O)OC(C)=O)N(CCCl)CCCl (stereo not shown)	–	–	13.0
CCOP(=O)(OCCC(OC(C)=O)OC(C)=O)N(CCCl)CCCl (stereo not shown)	–	–	13.6

Read-outs that look alike come from different tables or passages of the source.
